Yeast mating assay B: variants of the scFv Ab-14

Antigen: PDVDLGDISGINAS, a 14-residue peptide of the SARS-CoV-2 spike HR2 region.

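The variants were designed computationally from a first round of random CDR variants and then made and measured. Group labels follow the data file (Ctrl: baseline library sampled from a position-specific scoring matrix, with some repeated check sequences; Rand: our label for a block that the file lists under HC and that is probably the random mutants of the ten best first-round binders; En: ensemble of fine-tuned language models; GP: Gaussian process model; GPLM: also part of the Gaussian process libraries; HC: hill climbing; Gen: genetic algorithm; Gibbs: Gibbs sampling; a sequence that several methods proposed may carry one label only). The scFvs were displayed on barcoded MATa yeast, the peptide on MATalpha yeast. After mating in shaken culture at 30 °C for 16 h, diploids were selected and their barcode pairs sequenced. Read counts were normalised to the haploid input and turned into Kd by a linear fit to BCL2-family pairs of known affinity, for each replicate. The assay was run in six technical replicates.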

Each scFv is VH, the linker GGGGSGGGGSGGGGS, VL, as in the parent Ab-14, and differs from it in the CDRs of the heavy chain only.
VH: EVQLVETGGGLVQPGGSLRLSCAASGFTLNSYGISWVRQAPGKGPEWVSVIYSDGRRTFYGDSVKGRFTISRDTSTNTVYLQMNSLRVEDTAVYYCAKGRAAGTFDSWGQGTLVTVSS
VL: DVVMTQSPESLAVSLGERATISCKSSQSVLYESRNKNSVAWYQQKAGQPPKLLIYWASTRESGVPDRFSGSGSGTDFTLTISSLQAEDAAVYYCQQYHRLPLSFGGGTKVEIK

Changes read parent residue, position, new residue, counted from the first residue of the VH shown. Variants here have at most six changes. The Kd shown is the geometric mean over detected replicates; a lower Kd is a better binder. An entry "nd" has no value in the source: the pair was not observed among the diploids in any replicate. This suggests poor binding but is not conclusive. Three control strains display no target. For all heavy chain designs, 1% of the pairings with them gave a signal, with a median of 120 nM and one signal in twenty below 7.0 nM, so weak values seen in few replicates may be background. For each scFv, signals with the empty controls are counted beside the result.

For R100A A102G D106R [Ctrl], the assay gave nd (0 of 6 replicates; controls 0 of 18). The variant F59A S107M [Ctrl] gave 25 nM (6 of 6 replicates; controls 2 of 18). The variant T28D A101Q D106E [GP_HC] gave 29 nM (6 of 6 replicates; controls 1 of 18). For T28N S31E G61T A101Y [GPLM_HC], the assay gave 2.4 nM (6 of 6 replicates; controls 0 of 18). The variant N30E R100Q [GPLM_Gibbs] gave 7.9 nM (2 of 6 replicates; controls 0 of 18). For T28E S31E A101E S107T [GP_Gen], the assay gave 550 pM (6 of 6 replicates; controls 0 of 18). With G26Y T28D F59A [GP_Gen] the result was 19 nM (6 of 6 replicates; controls 0 of 18). With T28E G61S [GPLM_HC] the result was 1.7 nM (6 of 6 replicates; controls 1 of 18).

The variant T28D R56K A101Y [GP_Gen] showed 1.9 nM (6 of 6 replicates; controls 0 of 18). For G55V S63A A101Y [Ctrl], the assay gave nd (0 of 6 replicates; controls 0 of 18). For T28Q S31E A101T S107K [GPLM_Gibbs], the assay gave 1.9 nM (6 of 6 replicates; controls 0 of 18). The variant Y52A F105M D106V [Ctrl] showed 43 nM (1 of 6 replicates; controls 2 of 18). With G61S S63K D106H [Ctrl] the result was 67 nM (1 of 6 replicates; controls 0 of 18). The variant T28S G61T S63N R100E [GPLM_Gen] gave 37 nM (6 of 6 replicates; controls 0 of 18). With T28S G61C R100N [GPLM_Gen] the result was 32 nM (6 of 6 replicates; controls 1 of 18). With G61A R100Q S107T [GPLM_Gen] the result was 1.3 nM (6 of 6 replicates; controls 0 of 18).

The variant T28Q R100E S107K [GP_Gen] showed 18 nM (6 of 6 replicates; controls 0 of 18). For G61S R100F [GPLM_HC], the assay gave 10 nM (6 of 6 replicates; controls 0 of 18). The variant L29A A101Q S107L [Ctrl] showed nd (0 of 6 replicates; controls 0 of 18). With T28D S31T F59W R100Q [GP_Gibbs] the result was nd (0 of 6 replicates; controls 1 of 18). With T28H N30G S31D F59G R100S D106H [Ctrl] the result was nd (0 of 6 replicates; controls 1 of 18). The variant T28H F59A G61Q [GP_HC] gave 19 nM (6 of 6 replicates; controls 1 of 18). The variant T28E G61K R100W A101T [GP_Gen] gave 2.6 nM (4 of 6 replicates; controls 1 of 18). The variant T28D R100S S107A [GP_Gen] gave 460 pM (6 of 6 replicates; controls 0 of 18).

The variant T28S F105G [Ctrl] gave nd (0 of 6 replicates; controls 0 of 18). With T28D S31E S53A G61T R100E A101M [En_HC] the result was 400 pM (6 of 6 replicates; controls 0 of 18). For N30A G33E G61S A102H [Rand], the assay gave nd (0 of 6 replicates; controls 1 of 18). For G26Q Y52H S53A F105N D106K [Rand], the assay gave nd (0 of 6 replicates; controls 0 of 18). The variant T28H S53A S107K [Ctrl] showed 18 nM (6 of 6 replicates; controls 1 of 18). The variant G99I S107Q [Ctrl] showed nd (0 of 6 replicates; controls 0 of 18). With T28E N30D G61H A101T [GP_Gibbs] the result was 2.3 nM (6 of 6 replicates; controls 0 of 18). With T28S N30E G61A S63N [GPLM_Gen] the result was 4.4 nM (6 of 6 replicates; controls 0 of 18).

The variant T28E S31N G61I R100Q [GP_Gen] showed 11 nM (6 of 6 replicates; controls 0 of 18). The variant S31E A101T D106K S107Q [GP_HC] gave 770 nM (1 of 6 replicates; controls 0 of 18). With R56Q G61A S107L [GPLM_Gibbs] the result was 5.5 nM (6 of 6 replicates; controls 0 of 18). With G26H T28S S31E A101Q [GP_Gen] the result was 10 nM (6 of 6 replicates; controls 1 of 18). For G61S A101H S107T [GP_Gibbs], the assay gave 32 nM (2 of 6 replicates; controls 0 of 18). The variant G61A R100H A101E [GPLM_Gibbs] gave 4.5 nM (6 of 6 replicates; controls 0 of 18). The variant S31Q I34V S53A [Ctrl] gave 720 pM (6 of 6 replicates; controls 0 of 18). For T28L S31E R100K [GP_Gen], the assay gave 7.8 nM (6 of 6 replicates; controls 0 of 18).

The variant T28N R100A A102Q [Ctrl] gave nd (0 of 6 replicates; controls 1 of 18). With T28S G61H R100W A101M [GP_Gibbs] the result was 2.5 nM (6 of 6 replicates; controls 1 of 18). The variant T28S S31E G61I R100T [GP_Gen] gave 1.1 nM (6 of 6 replicates; controls 0 of 18). The variant G26L T28E T104L F105P [Ctrl] showed nd (0 of 6 replicates; controls 0 of 18). For T28S S31E S63K [GP_Gibbs], the assay gave 790 pM (6 of 6 replicates; controls 0 of 18). For S31E S63R G103V S107Q [GPLM_HC], the assay gave 37 nM (1 of 6 replicates; controls 0 of 18). For T28D G61D A101L [GP_Gen], the assay gave 1.4 nM (6 of 6 replicates; controls 1 of 18). With G61D D106F [Ctrl] the result was nd (0 of 6 replicates; controls 0 of 18).

With G26E N30E S53A [GP_HC] the result was 28 nM (5 of 6 replicates; controls 0 of 18). The variant T28A G61D R100Q A101V [GP_HC] showed 4.5 nM (6 of 6 replicates; controls 0 of 18). The variant S31E F59M A101Y [GP_HC] showed 4.0 nM (6 of 6 replicates; controls 0 of 18).

Picked from the list: the 5 lowest averages where every replicate gave a value.

Variant T28D S31E S53A G61T R100E A101M [En_HC] gave 400 pM (6 of 6 replicates; controls 0 of 18).
Variant T28D R100S S107A [GP_Gen] gave 460 pM (6 of 6 replicates; controls 0 of 18).
Variant T28E S31E A101E S107T [GP_Gen] gave 550 pM (6 of 6 replicates; controls 0 of 18).
Variant S31Q I34V S53A [Ctrl] gave 720 pM (6 of 6 replicates; controls 0 of 18).
Variant T28S S31E S63K [GP_Gibbs] gave 790 pM (6 of 6 replicates; controls 0 of 18).

The parent sequence was in this pool as ten entries: three were never detected, three once, and four in most replicates, with averages from 2.2 nM to 240 nM. The authors averaged sequences with at least three values out of six and counted those with two or fewer as poor binders. The range of this assay differs from that of the first round, and the authors advise against merging the two.

The measurements come from Li et al. 2023 (doi:10.1038/s41467-023-39022-2) through the FLAb antibody collection.